{"source": "patent US9789187B2", "about": "“Stable pharmaceutical composition for atherosclerosis” (Cadila Pharmaceuticals Limited, priority 2009, dated 2017)", "origin": "cited, not measured here", "conditions": "co-administered drug raises simvastatin AUC; cited from earlier work"}
{"substance": "Amlodepine", "values": [{"measurement": "increase of AUC of simvastatin", "result": 30, "unit": "%"}]}
